SMILES strings stand for the structures.

Type in all cases: cell-based
Test [1] relates to KG-1, ME-1, MOLM-13 and MOLM-14. The test can be described thus: Synergy of CPX-351 with FLT-3 inhibitor, EOBA algorithm. The following applies: CPX-351 precedes FLT-3 inhibitor or simultaneous; certain combinations.
Another test relates to MOLM-14 cells. The test can be described thus: Synergy of CPX-351 with FLT-3 inhibitor, Chou-Talalay algorithm.
The subject of a further test is GDM-1 cells. Described as above. The following applies: three protocols.

Regarding `CC(C)(C)c1cc(NC(=O)Nc2ccc(-c3cn4c(n3)sc3cc(OCCN5CCOCC5)ccc34)cc2)no1` [quizartinib], the “synergy with CPX-351 (EOBA)” value in test [1] is “high synergy”. Besides, the “synergy with CPX-351 (combination index)” value in the test with MOLM-14 cells (CPX-351 concomitantly with or before FLT-3 inhibitor) is listed as “high number of wells that show synergy”; in the test with MOLM-14 cells (FLT-3 inhibitor prior to CPX-351) it was “more antagonistic results”. In addition, the “synergy with CPX-351 (combination index), difference between protocols” value with GDM-1 cells is reported as “not significantly different”.

These data come from patent US10927418B2, “Assays and methods for selecting a treatment regimen for a subject with leukemia” (CELATOR PHARMACEUTICALS, INC., priority 2015, dated 2021).
